# Test results taken from patent US10500249B2, “Compositions and methods for preventing or treating diseases, conditions, or processes characterized by aberrant fibroblast proliferation and extracellular matrix deposition” (MOERAE MATRIX, INC., priority 2014, dated 2019).
# Key:
# Test in all cases: Kinase Profiling Assay
# Format in all cases: biochemical
# Settings in all cases: 100 μM
# FGFR2(N549H) (h) = FGFR2(N549H) (h) (Homo sapiens, UniProt P21802, N549H)
# Method: (§1) Every kinase activity measurement was conducted in duplicate.
# (§2) Specifically, in these assays, a positively charged substrate is phosphorylated with a radiolabeled phosphate group from an ATP if the kinase is not inhibited by an inhibitor peptide. The positively charged substrate then is attracted to a negatively charged filter membrane, quantified with a scintillation counter, and compared to a 100% activity control.
# (§3) In addition to determining the IC50 of the compound, the specificity of MK2 inhibitory peptides was assessed by examining activities of all 266 human kinases available for testing in the Millipore kinase profiling service (Table 1).
# PKCη (h) = PKCη (h) (Homo sapiens, UniProt P24723)
# Method: as §1, §2, §3
# PAR-1Bα (h) = target: T1, PAR-1Bα (h) (Homo sapiens, UniProt Q7KZI7)
# T1 construct: purchased Millipore
# T1 sequence (Q7KZI7 1-725 isoform Q7KZI7-4): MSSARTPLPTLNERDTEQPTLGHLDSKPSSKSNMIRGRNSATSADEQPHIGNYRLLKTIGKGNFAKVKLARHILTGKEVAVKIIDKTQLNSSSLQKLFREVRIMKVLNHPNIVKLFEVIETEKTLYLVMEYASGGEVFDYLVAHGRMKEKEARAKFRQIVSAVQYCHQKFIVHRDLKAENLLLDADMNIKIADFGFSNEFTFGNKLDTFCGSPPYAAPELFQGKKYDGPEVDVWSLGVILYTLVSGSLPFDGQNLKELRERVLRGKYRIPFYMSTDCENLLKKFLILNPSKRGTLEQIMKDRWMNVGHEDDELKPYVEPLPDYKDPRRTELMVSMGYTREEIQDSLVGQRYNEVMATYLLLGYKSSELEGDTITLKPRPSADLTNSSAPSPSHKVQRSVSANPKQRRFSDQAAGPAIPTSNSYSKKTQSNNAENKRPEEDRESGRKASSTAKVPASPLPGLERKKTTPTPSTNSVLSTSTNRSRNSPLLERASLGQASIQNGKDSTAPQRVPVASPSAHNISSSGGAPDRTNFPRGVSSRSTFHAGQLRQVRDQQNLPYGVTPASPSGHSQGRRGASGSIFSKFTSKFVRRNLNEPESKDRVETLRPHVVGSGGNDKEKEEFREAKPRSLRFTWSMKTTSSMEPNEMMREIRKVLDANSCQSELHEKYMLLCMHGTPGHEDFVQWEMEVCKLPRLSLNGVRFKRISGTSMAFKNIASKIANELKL
# Method: as §1, §2, §3
# TLK2 (h) = TLK2 (h) (Homo sapiens, UniProt Q86UE8)
# Method: as §1, §2, §3
# IGF-1R (h) = target: T2, IGF-1R (h) (Homo sapiens, UniProt P08069)
# T2 construct: purchased Millipore
# Method: as §1, §2, §3
# PDGFRα (D842V) (h) = target: T3, PDGFRα (D842V) (h) (Homo sapiens, UniProt P16234, D842V)
# T3 construct: purchased Millipore
# Method: as §1, §2, §3
# c-RAF (h) = target: T4, c-RAF (h) (Homo sapiens, UniProt P04049)
# T4 construct: purchased Millipore
# Method: as §1, §2, §3
# JAK3 (h) = target: T5, JAK3 (h) (Homo sapiens, UniProt P52333)
# T5 construct: purchased Millipore
# T5 sequence (P52333 1-1124): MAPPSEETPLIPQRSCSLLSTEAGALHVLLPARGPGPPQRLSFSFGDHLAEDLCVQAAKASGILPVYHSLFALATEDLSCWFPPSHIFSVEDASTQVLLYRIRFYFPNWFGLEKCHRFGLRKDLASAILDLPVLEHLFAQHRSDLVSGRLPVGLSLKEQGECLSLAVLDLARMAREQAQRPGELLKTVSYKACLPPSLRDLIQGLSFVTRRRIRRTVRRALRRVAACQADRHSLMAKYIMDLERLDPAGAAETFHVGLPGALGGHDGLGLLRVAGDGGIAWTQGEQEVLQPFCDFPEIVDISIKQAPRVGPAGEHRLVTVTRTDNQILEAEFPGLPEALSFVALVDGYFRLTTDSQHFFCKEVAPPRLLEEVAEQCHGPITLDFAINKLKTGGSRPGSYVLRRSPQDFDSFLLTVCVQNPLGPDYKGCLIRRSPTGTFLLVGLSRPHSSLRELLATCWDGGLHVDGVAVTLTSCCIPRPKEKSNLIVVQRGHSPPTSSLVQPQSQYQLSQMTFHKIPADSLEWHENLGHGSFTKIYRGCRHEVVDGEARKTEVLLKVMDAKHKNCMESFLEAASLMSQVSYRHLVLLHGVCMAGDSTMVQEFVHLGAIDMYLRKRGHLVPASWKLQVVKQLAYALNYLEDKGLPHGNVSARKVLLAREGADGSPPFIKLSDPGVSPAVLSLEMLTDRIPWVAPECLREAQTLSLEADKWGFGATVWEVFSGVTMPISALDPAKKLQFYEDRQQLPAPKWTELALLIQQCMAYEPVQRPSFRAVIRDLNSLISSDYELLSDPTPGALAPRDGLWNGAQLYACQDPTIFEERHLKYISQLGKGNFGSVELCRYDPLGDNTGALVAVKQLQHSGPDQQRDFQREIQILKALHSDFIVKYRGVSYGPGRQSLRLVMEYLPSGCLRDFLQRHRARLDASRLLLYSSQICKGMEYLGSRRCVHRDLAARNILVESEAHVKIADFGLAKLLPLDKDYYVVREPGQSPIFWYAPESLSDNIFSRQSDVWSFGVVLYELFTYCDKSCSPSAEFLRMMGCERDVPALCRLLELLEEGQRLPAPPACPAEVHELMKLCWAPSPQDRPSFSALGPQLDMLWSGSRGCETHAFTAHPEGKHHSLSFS
# Method: as §1, §2, §3
# Tie2(R849W) (h) = Tie2(R849W) (h) (Homo sapiens, UniProt Q02763, R849W)
# Method: as §1, §2, §3
# Met(Y1248D) (h) = Met(Y1248D) (h) (Homo sapiens, UniProt P08581, Y1230D)
# Method: as §1, §2, §3
# CK1γ1 (h) = target: T6, CK1γ1 (h) (Homo sapiens, UniProt Q9HCP0)
# T6 construct: purchased Millipore
# Method: as §1, §2, §3
# GRK5 (h) = target: T7, GRK5 (h) (Homo sapiens, UniProt P34947)
# T7 construct: purchased Millipore
# Method: as §1, §2, §3
# CLK2 (h) = target: T8, CLK2 (h) (Homo sapiens, UniProt P49760)
# T8 construct: purchased Millipore
# Method: as §1, §2, §3
# PKA (h) = target: T9, PKA (h) (Homo sapiens, UniProt P17612)
# T9 construct: purchased Millipore
# Method: as §1, §2, §3
# MRCKα (h) = target: T10, MRCKα (h) (Homo sapiens, UniProt Q5VT25)
# T10 construct: purchased Millipore
# Method: as §1, §2, §3
# MAPK1 (h) = MAPK1 (h) (Homo sapiens, UniProt P27361)
# Method: as §1, §2, §3
# FGFR3 (h) = FGFR3 (h) (Homo sapiens, UniProt P22607)
# Method: as §1, §2, §3
# PAK6 (h) = target: T11, PAK6 (h) (Homo sapiens, UniProt Q9NQU5)
# T11 construct: purchased Millipore
# Method: as §1, §2, §3
# FAK (h) = FAK (h) (Homo sapiens, UniProt Q05397)
# Method: as §1, §2, §3
# cKit(V560G) (h) = target: T12, cKit(V560G) (h) (Homo sapiens, UniProt P10721, V560G)
# T12 construct: purchased Millipore
# Method: as §1, §2, §3
# Plk1 (h) = Plk1 (h) (Homo sapiens, UniProt P53350)
# Method: as §1, §2, §3
# ACK1 (h) = ACK1 (h) (Homo sapiens, UniProt Q07912)
# Method: as §1, §2, §3
# BTK (h) = BTK (h) (Homo sapiens, UniProt Q06187)
# Method: as §1, §2, §3
# Met(Y1248H) (h) = Met(Y1248H) (h) (Homo sapiens, UniProt P08581, Y1230H)
# Method: as §1, §2, §3
# Snk (h) = Snk (h) (Homo sapiens, UniProt Q9NYY3)
# Method: as §1, §2, §3
# CK2α2 (h) = target: T13, CK2α2 (h) (Homo sapiens, UniProt P19784)
# T13 construct: purchased Millipore
# Method: as §1, §2, §3
sequence,measurement,setting,value
FAKLAARLYRKALARQLGVAA [MMI-0300],% activity,FGFR2(N549H) (h),116%
same,% activity,PKCη (h),103%
same,% activity,PAR-1Bα (h),113%
same,% activity,TLK2 (h),114%
same,% activity,IGF-1R (h),119%
same,% activity,PDGFRα (D842V) (h),114%
same,% activity,c-RAF (h),107%
same,% activity,JAK3 (h),121%
same,% activity,Tie2(R849W) (h),117%
same,% activity,Met(Y1248D) (h),102%
same,% activity,CK1γ1 (h),111%
same,% activity,GRK5 (h),136%
same,% activity,CLK2 (h),103%
same,% activity,PKA (h),119%
same,% activity,MRCKα (h),104%
same,% activity,MAPK1 (h),107%
same,% activity,FGFR3 (h),102%
same,% activity,PAK6 (h),104%
same,% activity,FAK (h),111%
same,% activity,cKit(V560G) (h),102%
same,% activity,Plk1 (h),115%
same,% activity,ACK1 (h),104%
same,% activity,BTK (h),102%
same,% activity,Met(Y1248H) (h),117%
same,% activity,Snk (h),114%
same,% activity,CK2α2 (h),105%
